# According to US11673867B2, “Sulfonamide derivative or pharmaceutically acceptable acid-addition salt” (University of Tsukuba, priority 2017, dated 2023):
# By UniProt entry, the sequences of proteins in these tests, tags left out.
# UniProt O43614, whole entry: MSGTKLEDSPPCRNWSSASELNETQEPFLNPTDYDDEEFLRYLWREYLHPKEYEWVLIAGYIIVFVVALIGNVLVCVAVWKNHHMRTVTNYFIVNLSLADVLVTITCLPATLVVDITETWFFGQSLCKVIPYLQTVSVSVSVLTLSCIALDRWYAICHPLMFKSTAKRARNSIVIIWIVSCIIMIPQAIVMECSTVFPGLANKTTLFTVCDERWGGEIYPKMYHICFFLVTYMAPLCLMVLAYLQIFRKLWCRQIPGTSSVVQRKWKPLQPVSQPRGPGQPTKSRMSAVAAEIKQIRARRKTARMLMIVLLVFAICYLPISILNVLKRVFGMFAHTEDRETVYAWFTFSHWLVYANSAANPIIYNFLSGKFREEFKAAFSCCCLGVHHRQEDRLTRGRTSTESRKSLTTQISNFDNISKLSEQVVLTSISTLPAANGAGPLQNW
# Biological target: human OX2R (Homo sapiens, UniProt O43614)
# Test: Evaluation of agonist activity against OX2R (intracellular calcium, Fura-2AM, FDSS7000, CHOOX2R cells)
# Conditions: read-out: EC50 (agonist activity value); CHO cells expressing human OX2R; calcium fluorescence ratio 340/380 nm; 10^-11.5 M to 10^-5 M
# Method: Evaluation of Agonist Activity Against OX2R
# NAFT-luciferase gene and human OX2R gene were constitutively expressed in CHO cell, which is a cell line derived from Chinese hamster ovary to establish a cell line (CHOOX2R). The cells were seeded in a 96-well Multiplate at 10,000 cells/well and cultured in a 5% FBS (Thermo Scientific)-added DMEM medium (Sigma-Aldrich) for 48 hr. The medium was removed, an assay buffer (20 mM HEPES (Sigma-Aldrich), Hanks' balanced salt solution (Gibco), 0.1% BSA (Sigma-Aldrich), 2.5 mM probenecid acid (Wako Pure Chemical Industries, Ltd.)) (100 μL) containing 4 μM Fura-2AM (Cayman Chemical) was added, and the cells were incubated for 60 min. The buffer containing Fura-2AM was removed, and an assay buffer (75 μL) was added. An assay buffer (25 μL) containing a test compound was added thereto to start the reaction. Changes in the intracellular calcium ion concentration due to the reaction were measured by measuring the fluorescence intensity ratio by dual wavelength excitation at 340 and 380 nm, by using FDSS7000 (Hamamatsu Photonics K.K.). The test compound was dissolved in DMSO to 10 mM, and diluted with the assay buffer to a final concentration of 10^−11.5 M to 10^−5 M (final concentration of DMSO 1%).
row,Compound,EC50 [nM]
1,CCCCOc1ccc(N2CCCN(c3cccc(NS(=O)(=O)c4cc(-c5cccc(C(=O)N(C)C)c5)ccc4OC)c3)C2=O)cc1,43
2,CCCOc1ccc(N2CCCN(c3cccc(NS(=O)(=O)c4cc(-c5cccc(C(=O)N(C)C)c5)ccc4OC)c3)C2=O)cc1,4.47
